Where a chain is given by its changes, count along the chain named. Numbers in names are those of the source.
B1: mAb 0170 (humanised TREM-1 antibody, mAb 0170 of WO2013/120553) (antibody, V domains shown)
VH: EVQLVESGGGLVQPGGSLKLSCAASGFTFSTYAMHWVRQASGKGLEWVGRIRTKSSNYATYYAASVKGRFTISRDDSKNTAYLQMNSLKTEDTAVYYCTRDMGIRRQFAYWGQGTLVTVSS
VL: DIVLTQSPDSLAVSLGERATINCRASESVDTFDYSFLHWYQQKPGQPPKLLIYRASNLESGVPDRFSGSGSGTDFTLTISSLQAEDVAVYYCQQSNEDPYTFGQGTKLEIKR
notes: also called mAb 170
B2: mAb 0317 (mAb 0170 variant, light chain E27Q, E97S) (antibody, human IgG4 S228P, kappa, V domains shown)
VH: B1 VH
VL: B1 VL with E27Q, E97S
notes: Charge patch mutations
B3: mAb 0318 (mAb 0170 variant, light chain E27Q, E97Q) (antibody, human IgG4 S228P, kappa, V domains shown)
VH: B1 VH
VL: B1 VL with E27Q, E97Q
notes: Charge patch mutations
B4: mAb 0319 (mAb 0170 variant, light chain E97S) (antibody, human IgG4 S228P, kappa, V domains shown)
VH: B1 VH
VL: B1 VL with E97S
notes: Charge patch mutation
B5: mAb 0320 (mAb 0170 variant, light chain E97Q) (antibody, human IgG4 S228P, kappa, V domains shown)
VH: B1 VH
VL: B1 VL with E97Q
notes: Charge patch mutation
B6: mAb 0321 (mAb 0170 variant, light chain E27Q) (antibody, human IgG4 S228P, kappa, V domains shown)
VH: B1 VH
VL: B1 VL with E27Q
notes: Charge patch mutation
B7: mAb 0322 (mAb 0170 variant, light chain F32A) (antibody, human IgG4 S228P, kappa, V domains shown)
VH: B1 VH
VL: B1 VL with F32A
B8: mAb 0323 (mAb 0170 variant, light chain F32S) (antibody, human IgG4 S228P, kappa, V domains shown)
VH: B1 VH
VL: B1 VL with F32S
B9: mAb 0324 (mAb 0170 variant, heavy chain A59Y) (antibody, human IgG4 S228P, kappa, V domains shown)
VH: B1 VH with A59Y
VL: B1 VL
B10: mAb 0325 (mAb 0170 variant, heavy chain N57S) (antibody, human IgG4 S228P, kappa, V domains shown)
VH: B1 VH with N57S
VL: B1 VL
B11: mAb 0326 (mAb 0170 variant, heavy chain A59Y, N57S) (antibody, human IgG4 S228P, kappa, V domains shown)
VH: B1 VH with N57S, A59Y
VL: B1 VL
B12: mAb 0330 (mAb 0170 variant, light chain F32A, E27Q, E97Q) (antibody, human IgG4 S228P, kappa, V domains shown)
VH: B1 VH
VL: B1 VL with E27Q, F32A, E97Q
B13: mAb 0332 (mAb 0170 variant, heavy chain A59Y, light chain E27Q, E97Q) (antibody, human IgG4 S228P, kappa, V domains shown)
VH: B1 VH with A59Y
VL: B1 VL with E27Q, E97Q
B14: mAb 0333 (mAb 0170 variant, heavy chain A59Y, light chain F32A, E27Q, E97Q) (antibody, human IgG4 S228P, kappa, V domains shown)
VH: B1 VH with A59Y
VL: B1 VL with E27Q, F32A, E97Q

Protein sequences, listed by entry. Tags and fused reporters are not part of them. Residues count along the entry.
UniProt Q9NP99, 21-234 limits assumed: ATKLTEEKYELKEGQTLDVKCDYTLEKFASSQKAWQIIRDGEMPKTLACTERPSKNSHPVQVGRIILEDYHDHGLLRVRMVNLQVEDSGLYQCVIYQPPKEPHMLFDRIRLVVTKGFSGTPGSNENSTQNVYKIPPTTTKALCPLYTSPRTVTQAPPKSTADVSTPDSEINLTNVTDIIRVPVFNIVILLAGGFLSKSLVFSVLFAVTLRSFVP
UniProt Q9NP99, 21-205 limits assumed: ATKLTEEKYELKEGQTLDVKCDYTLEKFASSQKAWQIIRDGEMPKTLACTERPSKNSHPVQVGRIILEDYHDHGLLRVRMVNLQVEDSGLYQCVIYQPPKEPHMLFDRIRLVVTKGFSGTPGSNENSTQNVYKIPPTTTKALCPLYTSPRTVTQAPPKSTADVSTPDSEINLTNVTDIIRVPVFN

Each binder was assayed against T1, human TREM-1 on cells (BWZ′36/hTREM-1 reporter cell line; hypoxic M2 macrophages) (human, UniProt Q9NP99 21-234) (assay: cell-based or functional assay).

Row | Binder | IC50: inhibition of B-galactosidase signal of BWZ'36/hTREM-1 reporter cells stimulated with PGN and PGLYRP1 expressed by activated neutrophils [nM]
1 | B1 | 0.24
2 | B2 | 0.33
3 | B3 | 0.49
4 | B4 | 0.27
5 | B5 | 0.32
6 | B6 | 0.19
7 | B7 | 0.26
8 | B8 | 0.34
9 | B9 | 0.37
10 | B10 | 0.31
11 | B11 | 0.31
12 | B12 | 0.22

Target: T1, human TREM-1 on cells (BWZ′36/hTREM-1 …)
Assay: cell-based or functional assay
Remark: another data set of the same source

Row | Binder | IC50: inhibition of B-galactosidase signal of BWZ'36/hTREM-1 reporter cells stimulated with PGN and recombinant PGLYRP1 [nM]
13 | B1 | 0.24
14 | B2 | 0.21
15 | B3 | 0.47
16 | B4 | 0.23
17 | B5 | 0.39
18 | B6 | 0.2
19 | B7 | 0.26
20 | B8 | 0.35
21 | B9 | 0.41
22 | B10 | 0.31
23 | B11 | 0.36
24 | B12 | 0.24
25 | B13 | 0.32
26 | B14 | 0.33

These binders were tested against T2, human TREM-1-Fc (human, UniProt Q9NP99 21-205, limits assumed) (assay: SPR (ProteOn), antibody captured via anti-Fc, TREM-1-Fc as analyte, 1:1 Langmuir fit, 25 C).
T2 construct: also called hTREM-1
Procedure: (§1) The binding kinetics of the mAb 0170 variants towards human TREM-1-Fc and cynomolgus TREM-1-Fc were determined, respectively. Binding studies were performed on a ProteOn Analyzer (BioRad) that measures molecular interactions in real time through surface plasmon resonance. Experiments were run at 25° C. and the samples were stored at 15° C. in the sample compartment. The signal (RU, response units) reported by the ProteOn is directly correlated to the mass on the individual sensor chip surfaces in the six parallel flow cells. Anti-human Fc monoclonal or anti-murine Fc polyclonal antibody from Biacore human or mouse Fc capture kits were immobilized in horizontal direction onto flow cells of a GLM sensor chip according to the manufacturer's instructions. The final immobilization level of capture antibody was approximately 2600-6000 RU in each experiment. The capture of purified monoclonal mouse or recombinantly expressed anti-hTREM-1 antibodies was conducted by diluting the antibodies to 5-10 nM into running buffer (10 mM Hepes 0.15 M NaCl, 5 mM EDTA, 0.05% surfactant P20, pH 7.4) followed by injection in vertical direction at 30 μL/min for 60 sec, creating reference interspots adjacent to all flow cells with only anti-Fc antibody immobilized. […] Binding of hTREM-1 or cTREM-1 proteins was conducted by injecting analyte (antigen) over all flow cells in horizontal direction to allow for comparative analyses of binding to different captured anti-TREM-1 antibodies relative to binding to the reference interspot. hTREM-1 or cTREM-1 proteins were diluted serially 1:3 to 1.2-100 nM or into running buffer, injected at 100 μL/min for 250 s and allowed to dissociate for 600 s. The GLM surface was regenerated after each injection cycle of analyte via two 18 s injections of 10 mM Glycine, pH 1.7 and 50 mM NaOH at 100 μL/min. This regeneration step removed the anti-TREM-1 antibody and any bound TREM-1 protein from the immobilized capture antibody surface and allowed for the subsequent binding of the next interaction sample pair.

Row | Binder | Kd [nM] | koff [s⁻¹] | kon [M⁻¹ s⁻¹]
27 | B2 | 0.2 | 0.0006 | 4e+06
28 | B3 | 0.2 | 0.0007 | 3e+06
29 | B4 | 0.2 | 0.0006 | 4e+06
30 | B5 | 0.2 | 0.0007 | 4e+06
31 | B6 | 0.2 | 0.0006 | 3e+06
32 | B7 | 0.1 | 0.0003 | 3e+06
33 | B8 | 0.3 | 0.0006 | 2e+06
34 | B9 | 0.3 | 0.0008 | 3e+06
35 | B10 | 0.08 | 0.0003 | 4e+06
36 | B11 | 0.2 | 0.0007 | 3e+06
37 | B12 | 0.1 | 0.0003 | 2e+06
38 | B13 | 0.4 | 0.001 | 3e+06
39 | B14 | 0.3 | 0.0005 | 2e+06

Target: T3, cynomolgus TREM-1-Fc (cynomolgus monkey)
T3 construct: also called cTREM-1
T3 chain: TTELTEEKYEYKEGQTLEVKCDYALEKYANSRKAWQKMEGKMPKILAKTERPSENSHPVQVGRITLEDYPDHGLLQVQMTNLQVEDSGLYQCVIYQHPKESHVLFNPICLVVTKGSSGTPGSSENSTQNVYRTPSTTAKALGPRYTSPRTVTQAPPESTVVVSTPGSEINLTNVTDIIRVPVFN
Assay: as above
Procedure: as §1

Row | Binder | koff [s⁻¹] | kon [M⁻¹ s⁻¹]
40 | B1 | 0.0004 | 300000
41 | B2 | 0.0007 | 300000
42 | B3 | 0.0007 | 300000
43 | B4 | 0.0006 | 300000
44 | B5 | 0.0006 | 200000
45 | B6 | 0.0006 | 300000
46 | B7 | 0.0001 | 600000
47 | B8 | 0.0002 | 400000
48 | B9 | 0.0006 | 200000
49 | B10 | ~0.0003 | 200000
50 | B11 | – | 200000
51 | B12 | 7e-05 | 600000
52 | B13 | 0.0008 | 200000
53 | B14 | 0.0001 | 400000
